Measurements as given in patent publication US6270979A (priority 1998, dated 2001).

Chains of the proteins cited; added tags and fusions are not shown.
UniProt P33535, whole entry: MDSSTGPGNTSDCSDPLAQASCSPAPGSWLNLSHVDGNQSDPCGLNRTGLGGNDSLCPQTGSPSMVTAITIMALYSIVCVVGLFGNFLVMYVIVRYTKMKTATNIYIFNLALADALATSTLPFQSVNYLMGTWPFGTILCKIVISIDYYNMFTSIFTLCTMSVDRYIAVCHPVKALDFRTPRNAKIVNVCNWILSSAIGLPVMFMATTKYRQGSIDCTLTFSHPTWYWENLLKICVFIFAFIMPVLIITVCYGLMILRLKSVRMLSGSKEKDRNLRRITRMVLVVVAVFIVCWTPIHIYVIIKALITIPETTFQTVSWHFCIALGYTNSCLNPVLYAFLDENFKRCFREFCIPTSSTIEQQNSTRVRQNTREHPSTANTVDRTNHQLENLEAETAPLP

How the values were obtained:
[1] = system: muscarinic m1 receptor mutant m1-E360A; type: cell-based
[2] = system: D2 receptor (long splice isoform); assay: D2 receptor cAMP assay in stably transfected HEK293 cells; type: cell-based; details: quinpirole pretreatment and washing
[3] = target: T1, μ opioid receptor (Rattus norvegicus, UniProt P33535); details: U293-μ, 10 μM forskolin
[4] = target: T1, μ opioid receptor; assay: Receptor recycling through endocytic vesicles; type: cell-based; set-up: expressed in transfected cells

C[N+](C)(C)CCOC(N)=O [carbochol]
effect on m1-E360A basal activity [1]: enhanced the basal activity

CCCN1CCC[C@@H]2Cc3n[nH]cc3C[C@H]21 [quinpirole]
spontaneous and negative antagonist induced cAMP overshoots after pretreatment [2]: Spontaneous and negative antagonist induced cAMP overshoots were observed

CN1CC[C@]23c4c5ccc(O)c4O[C@H]2[C@@H](O)C=C[C@H]3[C@H]1C5 [morphine]
spontaneous cAMP overshoot after morphine pretreatment [3]: measurable spontaneous cAMP overshoot
receptor recycling through endocytic vesicles [4]: but not morphine
